{
  "source": "ChEMBL document CHEMBL4007441",
  "about": "“Novel Design of Heptad Amphiphiles To Enhance Cell Selectivity, Salt Resistance, Antibiofilm Properties and Their Membrane-Disruptive Mechanism” (J Med Chem, 2017)",
  "key": {"Pseudomonas aeruginosa [1]": {"test_system": "Pseudomonas aeruginosa", "experiment": "Antibacterial activity against Pseudomonas aeruginosa ATCC 27853 after 18 hrs in presence of ZnCl2 by broth microdilution method", "assay_type": "functional", "conditions": "ATCC 27853, 18 h", "procedure,_shortened": "(§1)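 Broth microdilution MIC against ATCC 27853 in Mueller-Hinton broth with added salt at final concentrations: NaCl 150 mM, KCl 4.5 mM, NH4Cl 6 µM, ZnCl2 8 µM, FeCl3 4 µM. Inoculum about 1 × 10^6 CFU/mL from exponential phase, mixed 1:1 with two-fold peptide dilutions. MIC read as no visible turbidity after 18 h at 37 °C.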"}, "Escherichia coli": {"test_system": "Escherichia coli", "experiment": "microbe, parasite or virus in culture", "conditions": "ATCC 25922, 18 h"}, "Staphylococcus aureus": {"test_system": "Staphylococcus aureus", "experiment": "Antibacterial activity against Staphylococcus aureus ATCC 29213 after 18 hrs by broth microdilution method", "assay_type": "functional", "conditions": "ATCC 29213, 18 h", "procedure,_shortened": "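Broth microdilution. Exponential-phase bacteria grown in MHB at 37 °C, diluted to about 1 × 10^6 CFU/mL in MHB and mixed 1:1 with two-fold dilutions of peptide. MIC is the lowest concentration with no visible turbidity after 18 h at 37 °C. Controls were uninoculated broth and peptide-free culture. At least three repeats, duplicates each.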"}, "Pseudomonas aeruginosa [2]": {"test_system": "Pseudomonas aeruginosa", "experiment": "Antibacterial activity against ciprofloxacin-resistant Pseudomonas aeruginosa 11411 after 18 hrs by broth microdilution method", "assay_type": "functional", "conditions": "Pseudomonas aeruginosa, 11411, 18 h", "procedure,_shortened": "(§2)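 Broth microdilution in Mueller-Hinton broth. Exponential-phase bacteria (37 °C, 220 rpm shaking) were diluted to about 1 × 10^6 CFU/mL and mixed 1:1 with two-fold serial peptide dilutions. Controls were uninoculated MHB and untreated culture. Run at least three times, two replicates each.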"}, "Pseudomonas aeruginosa [3]": {"test_system": "Pseudomonas aeruginosa", "experiment": "Antibacterial activity against gentamicin-resistant Pseudomonas aeruginosa 11421 after 18 hrs by broth microdilution method", "assay_type": "functional", "conditions": "Pseudomonas aeruginosa, 11421, 18 h", "procedure,_shortened": "as §2"}, "Pseudomonas aeruginosa [4]": {"test_system": "Pseudomonas aeruginosa", "experiment": "Antibacterial activity against Pseudomonas aeruginosa ATCC 27853 after 18 hrs in presence of KCl by broth microdilution method", "assay_type": "functional", "conditions": "ATCC 27853, 18 h", "procedure,_shortened": "as §1"}, "Pseudomonas aeruginosa [5]": {"test_system": "Pseudomonas aeruginosa", "experiment": "Antibacterial activity against Pseudomonas aeruginosa ATCC 27853 after 18 hrs in presence of NaCl by broth microdilution method", "assay_type": "functional", "conditions": "ATCC 27853, 18 h", "procedure,_shortened": "as §1"}, "Pseudomonas aeruginosa [6]": {"test_system": "Pseudomonas aeruginosa", "experiment": "Antibacterial activity against Pseudomonas aeruginosa CICC 10419 after 18 hrs by broth microdilution method", "assay_type": "functional", "conditions": "CICC 10419, 18 h", "procedure,_shortened": "as §2, with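 “dilutions. MIC is the lowest concentration with no visible turbidity after 18 h at 37 °C.” for “dilutions.”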"}, "Pseudomonas aeruginosa [7]": {"test_system": "Pseudomonas aeruginosa", "experiment": "Antibacterial activity against Pseudomonas aeruginosa ATCC 27853 after 18 hrs in presence of NH4Cl by broth microdilution method", "assay_type": "functional", "conditions": "ATCC 27853, 18 h", "procedure,_shortened": "as §1"}, "Pseudomonas aeruginosa [8]": {"test_system": "Pseudomonas aeruginosa", "experiment": "Antibacterial activity against Pseudomonas aeruginosa ATCC 27853 after 18 hrs by broth microdilution method", "assay_type": "functional", "conditions": "ATCC 27853, 18 h", "procedure,_shortened": "as §2, with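 “dilutions. MIC is the lowest concentration with no visible turbidity after 18 h at 37 °C.” for “dilutions.”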"}, "Pseudomonas aeruginosa [9]": {"test_system": "Pseudomonas aeruginosa", "experiment": "Antibacterial activity against ceftazidime-resistant Pseudomonas aeruginosa 11431 after 18 hrs by broth microdilution method", "assay_type": "functional", "conditions": "Pseudomonas aeruginosa, 11431, 18 h", "procedure,_shortened": "as §2, with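 “dilutions. MIC is the lowest concentration with no visible turbidity after 18 h at 37 °C.” for “dilutions.”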"}, "Pseudomonas aeruginosa [10]": {"test_system": "Pseudomonas aeruginosa", "experiment": "Antibacterial activity against Pseudomonas aeruginosa 25349 clinical isolate after 18 hrs by broth microdilution method", "assay_type": "functional", "conditions": "Pseudomonas aeruginosa, 25349, 18 h"}, "Pseudomonas aeruginosa [11]": {"test_system": "Pseudomonas aeruginosa", "experiment": "Antibacterial activity against Pseudomonas aeruginosa CICC 21625 after 18 hrs by broth microdilution method", "assay_type": "functional", "conditions": "CICC 21625, 18 h", "procedure,_shortened": "as §2, with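 “dilutions. MIC is the lowest concentration with no visible turbidity after 18 h at 37 °C.” for “dilutions.”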"}, "Pseudomonas aeruginosa [12]": {"test_system": "Pseudomonas aeruginosa", "experiment": "Antibacterial activity against Pseudomonas aeruginosa CICC 21630 after 18 hrs by broth microdilution method", "assay_type": "functional", "conditions": "CICC 21630, 18 h", "procedure,_shortened": "as §2, with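 “dilutions. MIC is the lowest concentration with no visible turbidity after 18 h at 37 °C.” for “dilutions.”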"}, "Pseudomonas aeruginosa [13]": {"test_system": "Pseudomonas aeruginosa", "experiment": "Antibacterial activity against Pseudomonas aeruginosa ATCC 27853 after 18 hrs in presence of MgCl2 by broth microdilution method", "assay_type": "functional", "conditions": "ATCC 27853, 18 h", "procedure,_shortened": "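Broth microdilution MIC in MHB against the reference strain. About 1 × 10^6 CFU/mL exponential-phase inoculum mixed 1:1 with two-fold peptide dilutions in medium containing 1 mM MgCl2 (final). Lowest concentration with no visible turbidity after 18 h at 37 °C.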"}, "Pseudomonas aeruginosa [14]": {"test_system": "Pseudomonas aeruginosa", "experiment": "Antibacterial activity against Pseudomonas aeruginosa ATCC 27853 after 18 hrs in presence of FeCl3 by broth microdilution method", "assay_type": "functional", "conditions": "ATCC 27853, 18 h", "procedure,_shortened": "as §1"}, "Pseudomonas aeruginosa [15]": {"test_system": "Pseudomonas aeruginosa", "experiment": "Antibacterial activity against Pseudomonas aeruginosa 26305 clinical isolate after 18 hrs by broth microdilution method", "assay_type": "functional", "conditions": "Pseudomonas aeruginosa, 26305, 18 h"}, "Pseudomonas aeruginosa [16]": {"test_system": "Pseudomonas aeruginosa", "experiment": "Antibacterial activity against Pseudomonas aeruginosa 21328 clinical isolate after 18 hrs by broth microdilution method", "assay_type": "functional", "conditions": "Pseudomonas aeruginosa, 21328, 18 h"}},
  "data": [
    {"smiles": "CC[C@H](C)[C@H](NC(=O)CN)C(=O)NCC(=O)N[C@@H](C)C(=O)N[C@H](C(=O)N[C@@H](CC(C)C)C(=O)N[C@@H](CCCCN)C(=O)N[C@H](C(=O)N[C@@H](CC(C)C)C(=O)N[C@H](C(=O)N[C@H](C(=O)NCC(=O)N[C@@H](CC(C)C)C(=O)N1CCC[C@H]1C(=O)N[C@@H](C)C(=O)N[C@@H](CC(C)C)C(=O)N[C@H](C(=O)N[C@@H](CO)C(=O)N[C@@H](Cc1c[nH]c2ccccc12)C(=O)N[C@H](C(=O)N[C@@H](CCCCN)C(=O)N[C@@H](CCCNC(=N)N)C(=O)N[C@@H](CCCCN)C(=O)N[C@@H](CCCNC(=N)N)C(=O)N[C@@H](CCC(N)=O)C(=O)N[C@@H](CCC(N)=O)C(N)=O)[C@@H](C)CC)[C@@H](C)CC)[C@@H](C)O)[C@@H](C)O)C(C)C)C(C)C", "note": "[MELITTIN]", "values": [
      {"measurement": "MIC", "setting": "Pseudomonas aeruginosa [1]", "result": 8, "unit": "µg/mL"},
      {"measurement": "MIC", "setting": "Escherichia coli", "result": 2, "unit": "µg/mL"},
      {"measurement": "MIC", "setting": "Staphylococcus aureus", "result": 8, "unit": "µg/mL"},
      {"measurement": "MIC", "setting": "Pseudomonas aeruginosa [2]", "result": 4, "unit": "µg/mL"},
      {"measurement": "MIC", "setting": "Pseudomonas aeruginosa [3]", "result": 8, "unit": "µg/mL"},
      {"measurement": "MIC", "setting": "Pseudomonas aeruginosa [4]", "result": 8, "unit": "µg/mL"},
      {"measurement": "MIC", "setting": "Pseudomonas aeruginosa [5]", "result": 64, "unit": "µg/mL"},
      {"measurement": "MIC", "setting": "Pseudomonas aeruginosa [6]", "result": 8, "unit": "µg/mL"},
      {"measurement": "MIC", "setting": "Pseudomonas aeruginosa [7]", "result": 8, "unit": "µg/mL"},
      {"measurement": "MIC", "setting": "Pseudomonas aeruginosa [8]", "result": 4, "unit": "µg/mL"},
      {"measurement": "MIC", "setting": "Pseudomonas aeruginosa [9]", "result": 8, "unit": "µg/mL"},
      {"measurement": "MIC", "setting": "Pseudomonas aeruginosa [10]", "result": 4, "unit": "µg/mL"},
      {"measurement": "MIC", "setting": "Pseudomonas aeruginosa [11]", "result": 16, "unit": "µg/mL"},
      {"measurement": "MIC", "setting": "Pseudomonas aeruginosa [12]", "result": 8, "unit": "µg/mL"},
      {"measurement": "MIC", "setting": "Pseudomonas aeruginosa [13]", "result": 32, "unit": "µg/mL"},
      {"measurement": "MIC", "setting": "Pseudomonas aeruginosa [14]", "result": 16, "unit": "µg/mL"},
      {"measurement": "MIC", "setting": "Pseudomonas aeruginosa [15]", "result": 2, "unit": "µg/mL"},
      {"measurement": "MIC", "setting": "Pseudomonas aeruginosa [16]", "result": 4, "unit": "µg/mL"}
    ]}
  ]
}
